In article PMC8773746:

Biological target: Human erythropoietin (Epoetin β) (human) (UniProt P01588)
Assay: SPR; EPO immobilised by amine coupling on a ProteOn GLH chip (up to 3 000 RU); S100 or CaM as analyte (0.25–4 μM); 25 °C; 10 mM HEPES, 150 mM NaCl, 0.05% TWEEN 20, pH 7.4, 1 mM CaCl2; heterogeneous ligand model, values averaged over analyte concentrations (n = 5)

Substance: Human S100A6 protein (from UniProt P06703 1-90) (natural protein)
- Kd1 (heterogeneous ligand model, ligand population L1): 150 nM
- Kd2 (heterogeneous ligand model, ligand population L2): 650 nM
- ka1 (heterogeneous ligand model, ligand population L1): 3000 M⁻¹ s⁻¹
- ka2 (heterogeneous ligand model, ligand population L2): 25000 M⁻¹ s⁻¹
- kd1 (heterogeneous ligand model, ligand population L1): 0.00045 s⁻¹
- kd2 (heterogeneous ligand model, ligand population L2): 0.016 s⁻¹
